{
  "source": "patent US11702401B2",
  "about": "“Compounds and methods of use” (Medivation Technologies LLC, priority 2014, dated 2023)",
  "system": "p-SMAD2",
  "assay": "p-SMAD2 inhibition, Western blot, TGFβ-stimulated MDA-MB-231 cells",
  "format": "cell-based",
  "conditions": "TGFβ 2 ng/mL, triplicate; for inhibition at 0.1 µM / inhibition at 0.5 µM: Homo sapiens; for inhibition at 0.1 µM / Average p-SMAD2 inhibition @ 0.1 μM (% Inh): 0.1 μM compound; for inhibition at 0.1 µM: read-out: Average p-SMAD2 inhibition @ 0.1 μM (% Inh); for inhibition at 0.5 µM / Average p-SMAD2 inhibition @ 0.5 μM (% Inh): 0.5 μM compound; for inhibition at 0.5 µM: read-out: Average p-SMAD2 inhibition @ 0.5 μM (% Inh)",
  "data": [
    {"smiles": "COc1cnc(-c2cc(Cl)ccc2F)cc1Nc1ccncc1C(=O)NC[C@H](C)O", "note": "(single isomer, unassigned) [13a]", "values": [
      {"measurement": "inhibition at 0.1 µM", "value": 59, "unit": "%"},
      {"measurement": "inhibition at 0.5 µM", "value": 93.7, "unit": "%"}
    ]},
    {"smiles": "C=C(C)c1cnc(-c2cc(Cl)ccc2F)cc1Nc1ccncc1C(=O)NCCO", "note": "[compound 26, 4-[[2-(5-chloro-2-fluoro-phenyl)-5-isopropenyl-4-pyridyl]amino]-N-(2-hydroxyethyl)pyridine-3-carboxamide]", "values": [
      {"measurement": "Average p-SMAD2 inhibition @ 0.1 μM (% Inh)", "value": 64.00, "unit": "% Inh"},
      {"measurement": "Average p-SMAD2 inhibition @ 0.5 μM (% Inh)", "value": 89.00, "unit": "% Inh"}
    ]},
    {"smiles": "CC(C)c1cnc(-c2cc(Cl)ccc2F)cc1Nc1ccncc1C(=O)NC(CO)CO", "note": "[compound 22, 4-[[2-(5-chloro-2-fluoro-phenyl)-5-isopropyl-4-pyridyl]amino]-N-[2-hydroxy-1-(hydroxymethyl)ethyl]pyridine-3-carboxamide]", "values": [
      {"measurement": "Average p-SMAD2 inhibition @ 0.1 μM (% Inh)", "value": 50.00, "unit": "% Inh"}
    ]},
    {"smiles": "CC(C)c1cnc(-c2cc(Cl)ccc2F)cc1Nc1ncncc1C(=O)NC[C@H](C)O", "note": "(single isomer, unassigned) [12a]", "values": [
      {"measurement": "inhibition at 0.1 µM", "value": 64.3, "unit": "%"},
      {"measurement": "inhibition at 0.5 µM", "value": 93, "unit": "%"}
    ]},
    {"smiles": "C=C(C)c1cnc(-c2cc(Cl)ccc2F)cc1Nc1ccncc1C(=O)N[C@@H](C)CO", "note": "[7a, (S)-4-(2-(5-chloro-2-fluorophenyl)-5-(prop-1-en-2-yl)pyridin-4-ylamino)-N-(1-hydroxypropan-2-yl)nicotinamide]", "values": [
      {"measurement": "Average p-SMAD2 inhibition @ 0.1 μM (% Inh)", "value": 74.33, "unit": "% Inh"},
      {"measurement": "Average p-SMAD2 inhibition @ 0.5 μM (% Inh)", "value": 99.33, "unit": "% Inh"}
    ]},
    {"smiles": "CC(C)c1cnc(-c2cc(Cl)ccc2F)cc1Nc1ccncc1C(=O)NCCN", "note": "[compound 19, N-(2-aminoethyl)-4-[[2-(5-chloro-2-fluoro-phenyl)-5-isopropyl-4-pyridyl]amino]pyridine-3-carboxamide]", "values": [
      {"measurement": "Average p-SMAD2 inhibition @ 0.5 μM (% Inh)", "value": 93.00, "unit": "% Inh"}
    ]},
    {"smiles": "CC(=O)NCCNC(=O)c1cnccc1Nc1cc(-c2cc(Cl)ccc2F)ncc1C(C)C", "note": "[compound 14, N-(2-acetamidoethyl)-4-[[2-(5-chloro-2-fluoro-phenyl)-5-isopropyl-4-pyridyl]amino]pyridine-3-carboxamide]", "values": [
      {"measurement": "Average p-SMAD2 inhibition @ 0.1 μM (% Inh)", "value": 45.00, "unit": "% Inh"}
    ]},
    {"smiles": "C=C(C)c1cnc(-c2cc(Cl)ccc2F)cc1Nc1ccncc1C(=O)N[C@@H](CC)CO", "note": "(single isomer, unassigned) [24a]", "values": [
      {"measurement": "Average p-SMAD2 inhibition @ 0.1 μM (% Inh)", "value": 17.00, "unit": "% Inh"}
    ]},
    {"smiles": "C=C(C)c1cnc(-c2cc(Cl)ccc2F)cc1Nc1ccncc1C(=O)N[C@H](C)CO", "note": "[7b, (2R)-4-[[2-(5-chloro-2-fluoro-phenyl)-5-isopropenyl-4-pyridyl]amino]-N-(2-hydroxy-1-methyl-ethyl)pyridine-3-carboxamide]", "values": [
      {"measurement": "Average p-SMAD2 inhibition @ 0.1 μM (% Inh)", "value": 36.33, "unit": "% Inh"},
      {"measurement": "Average p-SMAD2 inhibition @ 0.5 μM (% Inh)", "value": 78.67, "unit": "% Inh"}
    ]},
    {"smiles": "CCc1cnc(-c2cc(Cl)ccc2F)cc1Nc1ccncc1C(=O)NC[C@H](C)O", "note": "(single isomer, unassigned) [11a]", "values": [
      {"measurement": "inhibition at 0.1 µM", "value": 44.7, "unit": "%"},
      {"measurement": "inhibition at 0.5 µM", "value": 96, "unit": "%"}
    ]},
    {"smiles": "CC(C)c1cnc(-c2cc(Cl)ccc2F)cc1Nc1ccncc1C(=O)NC[C@H](C)O", "note": "[2a, (S)-4-[[2-(5-chloro-2-fluoro-phenyl)-5-isopropyl-4-pyridyl]amino]-N-(2-hydroxypropyl)pyridine-3-carboxamide]", "values": [
      {"measurement": "inhibition at 0.1 µM", "value": 26.3, "unit": "%"},
      {"measurement": "inhibition at 0.5 µM", "value": 77.7, "unit": "%"}
    ]},
    {"smiles": "C=C(C)c1cnc(-c2cc(Cl)ccc2F)cc1Nc1ccncc1C(=O)NCC(C)O", "note": "(single isomer, unassigned) [3a]", "values": [
      {"measurement": "Average p-SMAD2 inhibition @ 0.5 μM (% Inh)", "value": 78.00, "unit": "% Inh"}
    ]}
  ]
}
